Assay: Phase-solubility of everolimus in aqueous cyclodextrin solutions
Assay type: physicochemical
Conditions: pure aqueous cyclodextrin solutions, 25 °C
Description: The cyclodextrin concentration ranged from 0 to 10% (w/w) except that of β-cyclodextrin that ranged from 0 to 1.50% (w/w). Everolimus was added to each cyclodextrin solution in excess, the samples were continuously agitated on a magnetic stirrer for 24 hours. The next day the samples were filtered through 0.45 μm PES syringe filters and the concentration of dissolved everolimus determined by HPLC as described in Example 1.

affinity for everolimus: highest affinity
Structure (SMILES): OC[C@H]1O[C@@H]2O[C@H]3[C@H](O)[C@@H](O)[C@@H](O[C@H]4[C@H](O)[C@@H](O)[C@@H](O[C@H]5[C@H](O)[C@@H](O)[C@@H](O[C@H]6[C@H](O)[C@@H](O)[C@@H](O[C@H]7[C@H](O)[C@@H](O)[C@@H](O[C@H]8[C@H](O)[C@@H](O)[C@@H](O[C@H]9[C@H](O)[C@@H](O)[C@@H](O[C@H]1[C@H](O)[C@H]2O)O[C@@H]9CO)O[C@@H]8CO)O[C@@H]7CO)O[C@@H]6CO)O[C@@H]5CO)O[C@@H]4CO)O[C@@H]3CO [γ-cyclodextrin]

Source: US20260364003A1, “EYE DROP MICROSUSPENSIONS OF MTOR INHIBITORS” (OCULIS OPERATIONS SARL, priority 2022, published 2026)
